The values that follow are results of earlier work, collected in patent US20250197356A1, “METHOD FOR SYNTHESIZING NUCIFERINE OR DERIVATIVE THEREOF, DERIVATIVE OF NUCIFERINE AND USE THEREOF” (HUAQIAO UNIVERSITY, priority 2022, published 2025).

For this data set the following is noted: TCMSP database, screening threshold OB ≥30%; cited from earlier work.

In the case of `CC[C@H](CC[C@@H](C)[C@H]1CC[C@H]2[C@@H]3CC=C4C[C@@H](O)CC[C@]4(C)[C@H]3CC[C@]12C)C(C)C` [Sitosterol], the “OB/% (oral bioavailability)” value is listed as 36.91%.
